Laboratory results taken from PubChem BioAssay (NCI).
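How tested: cells in 96-well plates exposed to compound for 48 hours at five concentrations. GI50 is the concentration that inhibits growth by half.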

Tests used:
Experiment in all cases: growth of human tumour cells (NCI), 48 h; in the data active means GI50 below about 0.43 µM; inactive means the rest
SK-OV-3 ovarian = system: SK-OV-3 ovarian
UACC-62 melanoma = system: UACC-62 melanoma
CAKI-1 renal = system: CAKI-1 renal
SF-268 CNS = system: SF-268 CNS
HOP-62 NSCLC = system: HOP-62 NSCLC
NCI/ADR-RES ovarian = system: NCI/ADR-RES ovarian
A498 renal = system: A498 renal
HOP-92 NSCLC = system: HOP-92 NSCLC
TK-10 renal = system: TK-10 renal
UACC-257 melanoma = system: UACC-257 melanoma
MOLT-4 leukemia = system: MOLT-4 leukemia
IGROV1 ovarian = system: IGROV1 ovarian
HT29 colon = system: HT29 colon
NCI-H460 lung = system: NCI-H460 lung
HCT-15 colon = system: HCT-15 colon
U251 CNS = system: U251 CNS
UO-31 renal = system: UO-31 renal
SK-MEL-2 melanoma = system: SK-MEL-2 melanoma
786-0 renal = system: 786-0 renal
SN12C renal = system: SN12C renal
EKVX NSCLC = system: EKVX NSCLC
HS 578T breast = system: HS 578T breast
NCI-H522 lung = system: NCI-H522 lung
NCI-H23 lung = system: NCI-H23 lung
BT-549 breast = system: BT-549 breast
KM12 colon = system: KM12 colon
SK-MEL-5 melanoma = system: SK-MEL-5 melanoma
SF-539 CNS = system: SF-539 CNS
NCI-H322M lung = system: NCI-H322M lung
T-47D breast = system: T-47D breast
COLO 205 colon = system: COLO 205 colon
SNB-75 CNS = system: SNB-75 CNS
RPMI-8226 leukemia = system: RPMI-8226 leukemia
SK-MEL-28 melanoma = system: SK-MEL-28 melanoma
MDA-MB-231 breast = system: MDA-MB-231 breast
MCF7 breast = system: MCF7 breast
HCT-116 colon = system: HCT-116 colon
SNB-19 CNS = system: SNB-19 CNS
DU-145 prostate = system: DU-145 prostate
PC-3 prostate = system: PC-3 prostate
RXF 393 renal = system: RXF 393 renal
SR leukemia = system: SR leukemia
OVCAR-3 ovarian = system: OVCAR-3 ovarian
OVCAR-5 ovarian = system: OVCAR-5 ovarian
SF-295 CNS = system: SF-295 CNS
K-562 leukemia = system: K-562 leukemia
NCI-H226 lung = system: NCI-H226 lung
MALME-3M melanoma = system: MALME-3M melanoma
M14 melanoma = system: M14 melanoma
OVCAR-4 ovarian = system: OVCAR-4 ovarian
MDA-N = system: MDA-N
MDA-MB-435 = system: MDA-MB-435
LOX IMVI melanoma = system: LOX IMVI melanoma
ACHN renal = system: ACHN renal
A549 NSCLC = system: A549 NSCLC
OVCAR-8 ovarian = system: OVCAR-8 ovarian
SW-620 colon = system: SW-620 colon

Measured: GI50

O=C(O)C1(Nc2ccccc2)CCN(Cc2ccccc2)CC1
inactive: SK-OV-3 ovarian > 100 µM | UACC-62 melanoma > 100 µM | CAKI-1 renal > 100 µM | SF-268 CNS > 100 µM | HOP-62 NSCLC > 100 µM | NCI/ADR-RES ovarian > 100 µM | A498 renal > 100 µM | HOP-92 NSCLC > 100 µM | TK-10 renal > 100 µM | UACC-257 melanoma > 100 µM | MOLT-4 leukemia > 100 µM | IGROV1 ovarian > 100 µM | HT29 colon > 100 µM | NCI-H460 lung > 100 µM | HCT-15 colon > 100 µM | U251 CNS > 100 µM | UO-31 renal > 100 µM | SK-MEL-2 melanoma > 100 µM | 786-0 renal > 100 µM | SN12C renal > 100 µM | EKVX NSCLC > 100 µM | HS 578T breast > 100 µM | NCI-H522 lung > 100 µM | NCI-H23 lung > 100 µM | BT-549 breast > 100 µM | KM12 colon > 100 µM | SK-MEL-5 melanoma > 100 µM | SF-539 CNS > 100 µM | NCI-H322M lung > 100 µM | T-47D breast > 100 µM | COLO 205 colon > 100 µM | SNB-75 CNS > 100 µM | RPMI-8226 leukemia > 100 µM | SK-MEL-28 melanoma > 100 µM | MDA-MB-231 breast > 100 µM | MCF7 breast > 100 µM | HCT-116 colon > 100 µM | SNB-19 CNS > 100 µM | DU-145 prostate > 100 µM | PC-3 prostate > 100 µM | RXF 393 renal > 100 µM | SR leukemia > 100 µM | OVCAR-3 ovarian > 100 µM | OVCAR-5 ovarian > 100 µM | SF-295 CNS > 100 µM | K-562 leukemia > 100 µM | NCI-H226 lung > 100 µM | MALME-3M melanoma > 100 µM | M14 melanoma > 100 µM | OVCAR-4 ovarian > 100 µM | MDA-N > 100 µM | MDA-MB-435 = > 100 µM | LOX IMVI melanoma > 100 µM | ACHN renal > 100 µM | A549 NSCLC > 100 µM | OVCAR-8 ovarian > 100 µM | SW-620 colon > 100 µM
